Consider one molecule from ChEMBL document CHEMBL1155369, “Design and optimization of a series of novel 2-cyano-pyrimidines as cathepsin K inhibitors” (Bioorg Med Chem Lett, 2010).

By half-life is commonly meant how long it takes for the measured level to halve. Low readings indicate fast loss, high ones slow loss.

Data set [1] can be described thus: Half life in Sprague-Dawley rat at 2 mg/kg, iv and 10 mg/kg, po. It is filed as ADME, organism-based. As to conditions: in vivo.
For a further data set, the species on record is Homo sapiens. The experiment in a line: Half life in human plasma.

Regarding `N#Cc1nc(NC2CCCCC2)nc(N2CCNCC2)n1`, the half-life in data set [1] was 2.6 h; in the data set filed under Homo sapiens, above 2.5 h.
